The target of assay [1] is T1, Sucrase-isomaltase, intestinal (Rattus norvegicus, UniProt P23739). Put plainly: Inhibition of rat intestinal brush border membrane isomaltase.
Assay [2] addresses T1, Sucrase-isomaltase, intestinal. Put plainly: Inhibition of rat intestinal brush border membrane sucrase.

Protein sequences, listed by entry. Tags and fused reporters are not part of them. Residues count along the entry.
UniProt P23739, 1014-1841 limits assumed: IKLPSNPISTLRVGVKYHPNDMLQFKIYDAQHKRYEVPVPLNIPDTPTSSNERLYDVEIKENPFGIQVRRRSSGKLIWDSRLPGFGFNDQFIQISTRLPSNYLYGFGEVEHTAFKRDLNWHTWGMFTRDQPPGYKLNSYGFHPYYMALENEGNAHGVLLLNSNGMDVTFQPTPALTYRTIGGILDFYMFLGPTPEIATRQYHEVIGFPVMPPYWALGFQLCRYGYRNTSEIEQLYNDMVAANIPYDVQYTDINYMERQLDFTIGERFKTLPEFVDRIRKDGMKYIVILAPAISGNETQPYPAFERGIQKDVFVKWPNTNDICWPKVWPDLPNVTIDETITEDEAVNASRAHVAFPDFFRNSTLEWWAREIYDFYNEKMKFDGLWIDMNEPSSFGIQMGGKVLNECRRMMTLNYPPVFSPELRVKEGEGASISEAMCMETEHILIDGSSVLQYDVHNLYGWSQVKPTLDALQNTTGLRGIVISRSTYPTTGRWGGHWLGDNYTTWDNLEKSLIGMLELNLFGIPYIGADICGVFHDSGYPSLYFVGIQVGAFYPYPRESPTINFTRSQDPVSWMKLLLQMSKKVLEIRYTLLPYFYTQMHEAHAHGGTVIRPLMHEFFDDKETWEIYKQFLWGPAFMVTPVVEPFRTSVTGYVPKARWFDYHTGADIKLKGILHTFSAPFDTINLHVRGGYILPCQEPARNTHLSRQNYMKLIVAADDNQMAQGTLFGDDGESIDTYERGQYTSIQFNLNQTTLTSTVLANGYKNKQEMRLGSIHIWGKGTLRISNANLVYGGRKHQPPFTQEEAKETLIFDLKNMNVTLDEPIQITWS
UniProt P23739, 1-1013 limits assumed: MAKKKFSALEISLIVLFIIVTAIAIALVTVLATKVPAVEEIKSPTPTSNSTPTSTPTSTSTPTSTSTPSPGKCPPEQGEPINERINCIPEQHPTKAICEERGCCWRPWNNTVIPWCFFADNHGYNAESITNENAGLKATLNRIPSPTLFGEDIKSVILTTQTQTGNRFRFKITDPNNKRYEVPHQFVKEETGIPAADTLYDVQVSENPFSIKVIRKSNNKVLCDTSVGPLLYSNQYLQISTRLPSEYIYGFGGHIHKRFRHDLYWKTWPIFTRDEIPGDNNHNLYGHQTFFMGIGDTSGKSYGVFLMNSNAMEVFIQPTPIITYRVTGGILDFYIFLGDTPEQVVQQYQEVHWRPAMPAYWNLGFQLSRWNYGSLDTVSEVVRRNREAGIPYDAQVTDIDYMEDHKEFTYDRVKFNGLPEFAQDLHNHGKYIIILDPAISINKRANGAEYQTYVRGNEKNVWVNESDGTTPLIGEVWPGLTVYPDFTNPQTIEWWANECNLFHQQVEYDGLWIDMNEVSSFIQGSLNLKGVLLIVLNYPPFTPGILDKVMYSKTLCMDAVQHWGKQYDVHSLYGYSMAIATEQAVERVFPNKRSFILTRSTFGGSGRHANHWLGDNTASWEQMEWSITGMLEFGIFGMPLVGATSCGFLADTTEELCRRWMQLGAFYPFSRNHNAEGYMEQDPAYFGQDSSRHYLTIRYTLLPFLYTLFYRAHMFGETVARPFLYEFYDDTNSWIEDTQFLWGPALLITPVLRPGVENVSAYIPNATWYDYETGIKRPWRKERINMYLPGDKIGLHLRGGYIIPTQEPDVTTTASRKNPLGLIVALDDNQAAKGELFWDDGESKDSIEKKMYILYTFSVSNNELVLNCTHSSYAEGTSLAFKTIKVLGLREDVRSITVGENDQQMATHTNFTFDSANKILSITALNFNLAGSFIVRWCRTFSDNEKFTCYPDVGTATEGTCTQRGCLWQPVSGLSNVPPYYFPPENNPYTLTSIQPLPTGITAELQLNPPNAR

As a reminder, the IC50 is the midpoint of a concentration-inhibition curve. Low values mean greater potency in that assay, high ones weaker potency in that assay. With `C[C@H]1O[C@H](O[C@H]2[C@H](O)[C@@H](O)[C@@H](O[C@H]3[C@H](O)[C@@H](O)C(O)O[C@@H]3CO)O[C@@H]2CO)[C@H](O)[C@@H](O)[C@@H]1N[C@H]1C=C(CO)[C@@H](O)[C@H](O)[C@H]1O` (some centres not stated) [ACARBOSE], the IC50 in assay [1] is 380 µM; in assay [2], 0.56 µM.

The values above are taken from ChEMBL document CHEMBL1155801.
